1 substance from patent US6977272B2, “Method for antagonizing inhibition effects of alcohol on cell adhesion” (President and Fellows of Harvard College, priority 2002, dated 2005) can be followed below.

The subject of this data set is L1-mediated cell-cell adhesion in human L1-transfected NIH/3T3 cells (2B2-L1, 2A2-L1). As to the kind of experiment: Cell aggregation (cell-cell adhesion) assay in ethanol-sensitive, human L1-transfected NIH/3T3 cells. Format: cell-based. The conditions noted are these: 1-butanol on L1-expressing NIH/3T3 cells. The method, then: NIH/3T3 cells were cultured at 37° C. in Dulbecco's […] Eagle medium (DMEM) (Invitrogen, Carlsbad, Calif.) supplemented with 10% normal calf serum (Intergen, Purchase, N.Y.) and 400 μg/ml G418 (Life Technologies), in an atmosphere of 90% air and 10% CO2. Three subclones were utilized in these studies: 2B2-L1, 2A2-L1 and Vec-1A5.
Cell adhesion assays were performed in the absence and presence of the compounds, listed below in Table 1. […] The aqueous concentration of each antagonist was calculated to produce membrane concentrations equivalent to 100 mM ethanol. Membrane/buffer partition coefficients (Pm/b) were obtained or calculated from published octanol/water partition coefficients.
Cells were detached by gentle agitation in calcium-free and magnesium-free PBS supplemented with 0.1 mg/ml. […] Cells were viewed at a final magnification of 200× and each well was scored for single and adherent cells in five to six microscopic fields of view. Approximately 100 cells per field of view and 600 cells per well were counted. The percent of adherent cells was calculated for each microscopic field of view and then averaged for each well.
Agonists and antagonists were initially tested at aqueous concentrations that were calculated to produce molar membrane concentrations (˜10 mM) equivalent to those produced by an aqueous concentration of 100 mM ethanol (ECEQ). […]

For 1-butanol [reference compound], the “concentrations that altered membrane morphology” value is “above 75 mM”.
